Where two headings read alike, the source gives them in different places.

By UniProt entry, the sequences of proteins in these tests, tags left out.
UniProt O43613, whole entry: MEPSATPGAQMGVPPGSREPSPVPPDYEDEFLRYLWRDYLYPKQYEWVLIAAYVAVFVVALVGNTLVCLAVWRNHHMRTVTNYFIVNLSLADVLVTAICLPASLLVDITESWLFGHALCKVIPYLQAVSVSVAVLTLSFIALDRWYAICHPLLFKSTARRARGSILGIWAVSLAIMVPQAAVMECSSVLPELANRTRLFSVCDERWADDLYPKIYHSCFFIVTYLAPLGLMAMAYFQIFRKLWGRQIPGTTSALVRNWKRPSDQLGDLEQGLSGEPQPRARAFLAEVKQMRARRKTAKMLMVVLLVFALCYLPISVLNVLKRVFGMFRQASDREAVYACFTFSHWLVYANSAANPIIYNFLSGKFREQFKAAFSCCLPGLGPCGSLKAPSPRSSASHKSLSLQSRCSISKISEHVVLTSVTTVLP

The target in one experiment is rat orexin 1 receptor (Rattus norvegicus, UniProt P56718). The experiment in a line: Rat orexin 1 receptor radioligand binding (competitive, [3H]-SB674042, HEK293 cell preparations).
For a further experiment, the target named is human orexin 1 receptor (Homo sapiens (Human), UniProt O43613). Description: Human orexin 1 receptor radioligand binding (competitive, [3H]-SB674042, CHO cell preparations). The following applies: read-out: hOX1 Ki (nm).

As for `Cc1ccc(-n2nccn2)c(C(=O)N2C3CCC2C(COc2ccc(F)cn2)C3)n1` (racemic) [Example 7, (±)-(2-(((5-fluoropyridin-2-yl)oxy)methyl)-7-azabicyclo[2.2.1]heptan-7-yl)(6-methyl-3-(2H-1,2,3-triazol-2-yl)pyridin-2-yl)methanone], the inhibitory constant (Ki) at rat orexin 1 receptor (rOX1 Ki (nm)) worked out at 19 nM.

As for `Cc1ccc(-n2nccn2)c(C(=O)N2C3CCC2C(COc2ccc(F)cn2)C3)n1` (racemic) [Example 111, (±)-(2-(((5-fluoropyridin-2-yl)oxy)methyl)-7-azabicyclo[2.2.1]heptan-7-yl)(6-methyl-3-(2H-1,2,3-triazol-2-yl)pyridin-2-yl)methanone], the inhibition constant (Ki) on rat orexin 1 receptor (read-out: rOX1 Ki (nm)) amounted to 19 nM.

In the case of `COc1c(F)cccc1C(=O)N1C2CCC1C(COc1ccc(F)cn1)C2` (racemic) [Example 173, (±)-(3-fluoro-2-methoxyphenyl)(2-(((5-fluoropyridin-2-yl)oxy)methyl)-7-azabicyclo[2.2.1]heptan-7-yl)methanone], on rat orexin 1 receptor (rat orexin 1 receptor, [3H]-SB674042 competition binding, read-out: rOX1 Ki (nm)), the Ki was 1260 nM.

`Cc1ccc(-n2nccn2)c(C(=O)N2[C@@H]3CC[C@H]2[C@H](COc2ccc(F)cn2)C3)n1` [Example 8A, ((1S,2R,4R)-2-(((5-fluoropyridin-2-yl)oxy)methyl)-7-azabicyclo[2.2.1]heptan-7-yl)(6-methyl-3-(2H-1,2,3-triazol-2-yl)pyridin-2-yl)methanone]: at rat orexin 1 receptor (rOX1 Ki (nm)), the inhibition constant Ki worked out at 9 nM.

On to `Cc1ccc(-n2nccn2)c(C(=O)N2[C@H]3CC[C@@H]2[C@@H](COc2ccc(F)cn2)C3)n1` [Example 8B, ((1R,2S,4S)-2-(((5-fluoropyridin-2-yl)oxy)methyl)-7-azabicyclo[2.2.1]heptan-7-yl)(6-methyl-3-(2H-1,2,3-triazol-2-yl)pyridin-2-yl)methanone], for which the inhibitory constant (Ki) at rat orexin 1 receptor (read-out: rOX1 Ki (nm)) was over 10000 nM.

For the molecule `Cc1noc(-c2c(F)cccc2C(=O)N2[C@@H]3CC[C@H]2[C@H](Nc2cnc(C(F)(F)F)cn2)C3)n1` [Example 254, (3-fluoro-2-(3-methyl-1,2,4-oxadiazol-5-yl)phenyl)((1S,2R,4R)-2-((5-(trifluoromethyl)pyrazin-2-yl)amino)-7-azabicyclo[2.2.1]heptan-7-yl)methanone], the Ki on rat orexin 1 receptor (read-out: rOX1 Ki (nm)) was 23 nM.

For `Cc1cccc(C(=O)N2[C@@H]3CC[C@H]2[C@H](Nc2cnc(C(F)(F)F)cn2)C3)c1-c1ncccn1` [Example 273, (3-methyl-2-(pyrimidin-2-yl)phenyl)((1S,2R,4R)-2-((5-(trifluoromethyl)pyrazin-2-yl)amino)-7-azabicyclo[2.2.1]heptan-7-yl)methanone], the inhibition constant (Ki) on human orexin 1 receptor is 12 nM.

`Cc1cccc(C(=O)N2[C@@H]3CC[C@H]2[C@H](Nc2ncc(C(F)(F)F)cn2)C3)c1-c1ncccn1` [Example 281, (3-methyl-2-(pyrimidin-2-yl)phenyl)((1S,2R,4R)-2-((5-(trifluoromethyl)pyrimidin-2-yl)amino)-7-azabicyclo[2.2.1]heptan-7-yl)methanone]: the Ki at rat orexin 1 receptor (read-out: rOX1 Ki (nm)) worked out at 21 nM.

Source of the values: US9062078B2, “Substituted 7-azabicyles and their use as orexin receptor modulators” (priority 2013, dated 2015).
